# Laboratory results reported in PMC7348096.
# Protein sequences, listed by entry. Tags and fused reporters are not part of them. Lines headed by an entry give the natural chain unless they say otherwise; changes in a name come on top. Residues count along the entry.
# UniProt P35372, whole entry: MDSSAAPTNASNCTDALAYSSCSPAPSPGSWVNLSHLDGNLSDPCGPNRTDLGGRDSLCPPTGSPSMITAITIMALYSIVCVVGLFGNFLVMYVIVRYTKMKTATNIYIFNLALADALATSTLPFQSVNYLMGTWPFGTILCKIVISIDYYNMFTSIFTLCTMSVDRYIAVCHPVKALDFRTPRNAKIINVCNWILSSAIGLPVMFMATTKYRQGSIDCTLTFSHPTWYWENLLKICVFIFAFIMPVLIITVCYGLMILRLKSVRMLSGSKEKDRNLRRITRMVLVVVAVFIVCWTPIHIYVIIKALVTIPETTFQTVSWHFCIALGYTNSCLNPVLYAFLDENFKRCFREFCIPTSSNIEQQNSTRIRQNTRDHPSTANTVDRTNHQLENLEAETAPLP
# UniProt Q12879, 23-1464 limits assumed: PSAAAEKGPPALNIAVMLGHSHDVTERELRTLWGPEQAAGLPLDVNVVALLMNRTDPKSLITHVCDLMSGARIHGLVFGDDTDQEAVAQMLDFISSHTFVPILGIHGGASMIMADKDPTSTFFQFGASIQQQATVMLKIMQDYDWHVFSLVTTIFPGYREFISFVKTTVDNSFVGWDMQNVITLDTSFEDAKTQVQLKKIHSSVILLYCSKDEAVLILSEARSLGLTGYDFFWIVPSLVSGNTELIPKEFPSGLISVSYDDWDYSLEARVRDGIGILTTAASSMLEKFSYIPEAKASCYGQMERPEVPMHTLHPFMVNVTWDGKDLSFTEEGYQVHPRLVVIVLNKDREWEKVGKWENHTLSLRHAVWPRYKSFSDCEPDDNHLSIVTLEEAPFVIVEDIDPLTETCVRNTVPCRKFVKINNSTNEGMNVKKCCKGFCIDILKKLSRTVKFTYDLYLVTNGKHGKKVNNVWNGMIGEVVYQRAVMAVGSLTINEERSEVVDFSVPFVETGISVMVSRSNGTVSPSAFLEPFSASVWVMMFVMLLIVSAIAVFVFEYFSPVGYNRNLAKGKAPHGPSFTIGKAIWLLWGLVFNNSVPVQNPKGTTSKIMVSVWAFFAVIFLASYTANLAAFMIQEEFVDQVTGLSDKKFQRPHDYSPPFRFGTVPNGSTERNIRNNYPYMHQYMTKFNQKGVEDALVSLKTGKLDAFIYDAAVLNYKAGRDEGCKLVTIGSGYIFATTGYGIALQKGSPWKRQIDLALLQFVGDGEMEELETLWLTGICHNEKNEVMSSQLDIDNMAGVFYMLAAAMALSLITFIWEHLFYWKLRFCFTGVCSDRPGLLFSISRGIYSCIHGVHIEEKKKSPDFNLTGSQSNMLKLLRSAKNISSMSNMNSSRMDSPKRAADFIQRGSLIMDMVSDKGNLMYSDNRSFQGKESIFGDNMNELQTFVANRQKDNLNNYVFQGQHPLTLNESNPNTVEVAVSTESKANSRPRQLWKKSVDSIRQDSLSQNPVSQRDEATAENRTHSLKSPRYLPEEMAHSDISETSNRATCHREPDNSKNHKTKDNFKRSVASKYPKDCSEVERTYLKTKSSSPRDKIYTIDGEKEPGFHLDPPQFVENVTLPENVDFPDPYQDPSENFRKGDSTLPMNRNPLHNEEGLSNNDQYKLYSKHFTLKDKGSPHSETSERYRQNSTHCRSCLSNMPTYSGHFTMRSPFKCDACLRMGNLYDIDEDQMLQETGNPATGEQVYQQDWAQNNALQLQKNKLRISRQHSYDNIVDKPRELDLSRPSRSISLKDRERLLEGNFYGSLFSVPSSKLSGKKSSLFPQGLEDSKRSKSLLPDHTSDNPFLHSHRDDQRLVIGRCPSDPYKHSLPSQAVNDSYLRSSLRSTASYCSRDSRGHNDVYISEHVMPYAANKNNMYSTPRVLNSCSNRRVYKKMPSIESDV
# Columns and labels:
# [1] = molecular target: T1, human μ receptors (Homo sapiens, UniProt P35372); assay: GloSensor cAMP accumulation assay; settings: concentrations up to 100 μM
# [2] = molecular target: T1, human μ receptors; assay: PathHunter β‐arrestin2 recruitment assay; settings: concentrations up to 100 μM
# [3] = molecular target: GluN1/N2A NMDA receptors (Homo sapiens, UniProt Q05586+Q12879); assay: Intracellular Ca2+ imaging (Fura‐2) of NMDA/glycine evoked responses in Ltk‐ cells; settings: 30 μM NMDA + 50 μM glycine; memantine 10 μM, MT‐45, M1, M17 30 μM pre‐applied; paired t‐test
SMILES,efficacy in reducing cAMP accumulation [1],efficacy in β‐arrestin2 recruitment [2],effect on amplitude of NMDA and glycine induced intracellular Ca2+ response [3]
C1CCC(N2CCNCC2)CC1,very modest efficacy,Neither compound showed any efficacy,no statistically significant change
CC12CC3CC(C)(C1)CC(N)(C3)C2,,,reduced the amplitude
